Experimental findings from ChEMBL document CHEMBL5107989, “Design, synthesis and activity evaluation of isopropylsulfonyl-substituted 2,4- diarylaminopyrimidine derivatives as FAK inhibitors for the potential treatment of pancreatic cancer” (Eur J Med Chem, 2022) are described below.

Amino acid sequences for entries named in this document (tags omitted). A change or cut given only in a name is not applied to a line headed by its entry.
UniProt Q9UM73: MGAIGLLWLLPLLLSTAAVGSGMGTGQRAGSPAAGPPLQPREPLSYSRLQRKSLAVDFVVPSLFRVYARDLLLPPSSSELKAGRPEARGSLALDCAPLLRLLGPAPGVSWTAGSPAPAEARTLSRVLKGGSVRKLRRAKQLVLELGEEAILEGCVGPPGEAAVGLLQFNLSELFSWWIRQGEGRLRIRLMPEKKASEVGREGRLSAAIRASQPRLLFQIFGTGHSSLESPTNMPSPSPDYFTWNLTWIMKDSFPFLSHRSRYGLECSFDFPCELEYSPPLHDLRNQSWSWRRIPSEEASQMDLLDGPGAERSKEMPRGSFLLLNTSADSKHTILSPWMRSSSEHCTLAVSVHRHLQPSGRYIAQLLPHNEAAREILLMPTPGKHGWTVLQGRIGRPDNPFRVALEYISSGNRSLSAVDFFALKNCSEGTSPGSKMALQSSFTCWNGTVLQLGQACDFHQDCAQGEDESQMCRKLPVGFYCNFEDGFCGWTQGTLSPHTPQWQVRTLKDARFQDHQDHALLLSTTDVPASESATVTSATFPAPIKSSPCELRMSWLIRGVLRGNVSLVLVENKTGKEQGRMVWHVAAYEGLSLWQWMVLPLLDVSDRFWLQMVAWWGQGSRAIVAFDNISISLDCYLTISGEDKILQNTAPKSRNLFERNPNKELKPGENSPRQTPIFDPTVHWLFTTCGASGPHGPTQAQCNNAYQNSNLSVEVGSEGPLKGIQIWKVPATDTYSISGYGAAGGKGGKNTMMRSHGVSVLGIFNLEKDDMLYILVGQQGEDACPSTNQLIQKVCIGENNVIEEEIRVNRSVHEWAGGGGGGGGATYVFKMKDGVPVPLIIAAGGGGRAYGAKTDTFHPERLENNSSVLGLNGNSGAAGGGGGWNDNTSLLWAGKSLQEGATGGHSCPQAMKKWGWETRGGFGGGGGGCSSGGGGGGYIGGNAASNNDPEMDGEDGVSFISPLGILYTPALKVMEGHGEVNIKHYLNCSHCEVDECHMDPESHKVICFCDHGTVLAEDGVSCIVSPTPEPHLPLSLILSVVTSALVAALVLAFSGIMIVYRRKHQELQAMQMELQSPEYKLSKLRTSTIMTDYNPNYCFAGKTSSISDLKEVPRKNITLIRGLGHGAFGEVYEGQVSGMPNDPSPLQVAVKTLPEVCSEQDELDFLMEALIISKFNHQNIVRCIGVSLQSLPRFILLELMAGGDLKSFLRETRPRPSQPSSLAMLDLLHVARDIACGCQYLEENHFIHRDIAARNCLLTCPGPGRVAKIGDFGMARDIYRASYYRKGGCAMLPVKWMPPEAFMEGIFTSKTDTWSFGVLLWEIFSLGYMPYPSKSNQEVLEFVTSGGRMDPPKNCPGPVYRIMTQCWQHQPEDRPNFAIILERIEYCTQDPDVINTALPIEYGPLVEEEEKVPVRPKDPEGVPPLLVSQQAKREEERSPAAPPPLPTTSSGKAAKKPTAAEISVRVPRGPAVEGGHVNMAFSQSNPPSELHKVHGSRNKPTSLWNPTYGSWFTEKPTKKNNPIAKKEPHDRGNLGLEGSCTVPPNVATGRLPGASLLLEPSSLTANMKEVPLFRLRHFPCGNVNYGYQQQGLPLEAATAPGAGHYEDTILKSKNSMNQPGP
UniProt Q14289, whole entry, looked up: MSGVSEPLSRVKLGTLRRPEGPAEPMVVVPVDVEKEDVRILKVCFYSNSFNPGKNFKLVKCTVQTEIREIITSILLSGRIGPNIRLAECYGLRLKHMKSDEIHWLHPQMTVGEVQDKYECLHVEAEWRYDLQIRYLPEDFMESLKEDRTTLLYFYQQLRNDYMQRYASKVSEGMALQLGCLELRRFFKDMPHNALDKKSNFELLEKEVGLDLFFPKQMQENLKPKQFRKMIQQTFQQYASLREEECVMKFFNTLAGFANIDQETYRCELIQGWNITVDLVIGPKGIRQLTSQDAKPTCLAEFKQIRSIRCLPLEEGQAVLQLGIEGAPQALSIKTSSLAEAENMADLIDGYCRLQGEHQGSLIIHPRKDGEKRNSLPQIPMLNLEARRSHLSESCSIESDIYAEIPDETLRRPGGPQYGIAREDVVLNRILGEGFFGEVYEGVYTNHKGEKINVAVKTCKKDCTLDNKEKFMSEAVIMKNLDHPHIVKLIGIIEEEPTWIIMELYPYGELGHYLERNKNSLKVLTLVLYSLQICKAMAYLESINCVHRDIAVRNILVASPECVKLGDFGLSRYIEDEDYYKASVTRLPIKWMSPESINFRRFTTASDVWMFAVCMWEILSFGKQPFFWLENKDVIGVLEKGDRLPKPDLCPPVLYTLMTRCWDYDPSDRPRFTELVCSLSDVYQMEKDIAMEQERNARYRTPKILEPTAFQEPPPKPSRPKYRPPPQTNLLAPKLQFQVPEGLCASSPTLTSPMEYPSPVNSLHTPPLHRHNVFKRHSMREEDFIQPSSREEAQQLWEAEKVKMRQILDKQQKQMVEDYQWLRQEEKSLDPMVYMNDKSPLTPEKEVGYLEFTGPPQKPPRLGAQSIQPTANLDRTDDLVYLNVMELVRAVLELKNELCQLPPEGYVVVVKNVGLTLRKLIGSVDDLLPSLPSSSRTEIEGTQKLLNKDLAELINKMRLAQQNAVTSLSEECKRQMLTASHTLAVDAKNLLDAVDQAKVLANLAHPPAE
UniProt Q08345: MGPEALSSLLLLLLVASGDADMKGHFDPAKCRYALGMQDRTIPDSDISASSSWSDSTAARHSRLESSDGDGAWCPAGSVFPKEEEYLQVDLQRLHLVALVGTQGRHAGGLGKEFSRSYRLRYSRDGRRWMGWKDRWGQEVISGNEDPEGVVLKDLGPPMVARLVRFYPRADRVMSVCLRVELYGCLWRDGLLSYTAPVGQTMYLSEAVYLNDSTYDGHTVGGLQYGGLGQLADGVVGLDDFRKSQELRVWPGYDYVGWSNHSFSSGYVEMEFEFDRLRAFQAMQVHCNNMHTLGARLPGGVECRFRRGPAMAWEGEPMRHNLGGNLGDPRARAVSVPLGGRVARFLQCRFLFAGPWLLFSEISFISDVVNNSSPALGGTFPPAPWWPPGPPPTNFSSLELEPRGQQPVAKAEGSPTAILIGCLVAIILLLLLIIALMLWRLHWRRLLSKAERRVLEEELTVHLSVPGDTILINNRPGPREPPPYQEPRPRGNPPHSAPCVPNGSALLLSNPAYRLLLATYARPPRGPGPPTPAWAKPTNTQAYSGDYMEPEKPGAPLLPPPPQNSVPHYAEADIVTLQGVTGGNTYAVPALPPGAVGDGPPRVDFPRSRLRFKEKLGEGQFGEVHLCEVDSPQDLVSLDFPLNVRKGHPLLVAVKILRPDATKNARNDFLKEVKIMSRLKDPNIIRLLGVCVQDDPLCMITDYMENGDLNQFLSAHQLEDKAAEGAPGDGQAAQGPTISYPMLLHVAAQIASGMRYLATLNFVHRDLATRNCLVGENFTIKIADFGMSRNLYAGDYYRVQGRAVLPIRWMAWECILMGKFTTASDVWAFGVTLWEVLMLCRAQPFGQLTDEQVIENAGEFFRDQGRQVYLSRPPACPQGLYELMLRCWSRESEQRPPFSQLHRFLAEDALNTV

Holding throughout (details): dose 10.0 nM
In experiment [1] the target is ALK tyrosine kinase receptor (Homo sapiens) (UniProt Q9UM73).
Experiment [2] addresses Protein-tyrosine kinase 2-beta (Homo sapiens) (UniProt Q14289).
Experiment [3] has as its target T1, Muscle, skeletal receptor tyrosine-protein kinase (Homo sapiens) (UniProt O15146).
T1 sequence (whole entry): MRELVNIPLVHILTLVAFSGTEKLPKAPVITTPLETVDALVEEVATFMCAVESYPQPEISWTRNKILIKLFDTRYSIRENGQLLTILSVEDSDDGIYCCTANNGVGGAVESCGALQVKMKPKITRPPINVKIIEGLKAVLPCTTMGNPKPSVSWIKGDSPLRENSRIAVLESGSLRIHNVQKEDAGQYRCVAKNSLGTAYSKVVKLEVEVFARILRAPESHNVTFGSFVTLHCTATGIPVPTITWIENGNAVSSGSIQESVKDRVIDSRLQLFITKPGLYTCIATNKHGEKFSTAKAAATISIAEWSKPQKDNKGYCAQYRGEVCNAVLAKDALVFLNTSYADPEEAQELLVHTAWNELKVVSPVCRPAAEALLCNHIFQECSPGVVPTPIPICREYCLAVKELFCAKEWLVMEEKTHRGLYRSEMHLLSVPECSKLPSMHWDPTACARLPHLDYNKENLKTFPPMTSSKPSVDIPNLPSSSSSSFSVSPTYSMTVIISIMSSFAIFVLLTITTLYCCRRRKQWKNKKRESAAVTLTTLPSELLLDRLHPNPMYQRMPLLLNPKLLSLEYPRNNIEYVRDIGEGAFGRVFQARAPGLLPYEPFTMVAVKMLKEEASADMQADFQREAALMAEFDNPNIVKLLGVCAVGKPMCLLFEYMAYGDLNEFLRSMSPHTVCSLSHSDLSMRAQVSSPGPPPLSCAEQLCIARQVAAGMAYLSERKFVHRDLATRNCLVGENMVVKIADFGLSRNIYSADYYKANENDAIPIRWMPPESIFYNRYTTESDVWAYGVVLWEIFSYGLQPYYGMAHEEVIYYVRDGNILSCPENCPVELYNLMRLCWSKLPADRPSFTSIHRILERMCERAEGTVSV

Experiment [4] addresses Epithelial discoidin domain-containing receptor 1 (Homo sapiens) (UniProt Q08345).

`CCOP(=O)(CC(=O)Nc1ccc(Nc2ncc(Cl)c(Nc3ccccc3S(=O)(=O)C(C)C)n2)cc1)OCC`: the inhibition is 92.7% in experiment [1], 91.5% in experiment [2], 93.4% in experiment [3] and 91% in experiment [4].
